From patent US20240150691A1, “BILE DUCT CHIP AND USE THEREOF” (Kyoto University, priority 2021, published 2024)

Test system: GFP-expressing HuCCT1 cells
Assay: Formation of tubular bile duct-like structure in microfluidic device
Format: cell-based, human
Settings: 10 ng/mL in culture medium, 4 days, lower layer flow path
Protocol: GFP-expressing HuCCT1 cells were seeded in the lower layer flow path of the microfluidic device in the presence or absence of 10 ng/mL of DLL1 or DLL4, and after 4 days, a cross-sectional image of the microfluidic device was acquired.
In FIG. 18, each arrow indicates a region in which the GFP-expressing HuCCT1 cells are not present, and “Control” indicates the results in the absence of DLL1 and DLL4.

B1: DLL1: recombinant human Delta Like Canonical Notch Ligand 1, lumenization factor (protein, UniProt O00548 18-723, looked up)
Delta-like protein 1: QVWSSGVFELKLQEFVNKKGLLGNRNCCRGGAGPPPCACRTFFRVCLKHYQASVSPEPPCTYGSAVTPVLGVDSFSLPDGGGADSAFSNPIRFPFGFTWPGTFSLIIEALHTDSPDDLATENPERLISRLATQRHLTVGEEWSQDLHSSGRTDLKYSYRFVCDEHYYGEGCSVFCRPRDDAFGHFTCGERGEKVCNPGWKGPYCTEPICLPGCDEQHGFCDKPGECKCRVGWQGRYCDECIRYPGCLHGTCQQPWQCNCQEGWGGLFCNQDLNYCTHHKPCKNGATCTNTGQGSYTCSCRPGYTGATCELGIDECDPSPCKNGGSCTDLENSYSCTCPPGFYGKICELSAMTCADGPCFNGGRCSDSPDGGYSCRCPVGYSGFNCEKKIDYCSSSPCSNGAKCVDLGDAYLCRCQAGFSGRHCDDNVDDCASSPCANGGTCRDGVNDFSCTCPPGYTGRNCSAPVSRCEHAPCHNGATCHERGHRYVCECARGYGGPNCQFLLPELPPGPAVVDLTEKLEGQGGPFPWVAVCAGVILVLMLLLGCAAVVVCVRLRLQKHRPPADPCRGETETMNNLANCQREKDISVSIIGATQIKNTNKKADFHGDHSADKNGFKARYPAVDYNLVQDLKGDDTAVRDAHSKRDTKCQPQGSSGEEKGTPTTLRGGEASERKRPDSGCSTSKDTKYQSVYVISEEKDECVIATEV
  formation of the tubular bile duct-like structure: accelerates the formation of the tubular bile duct-like structure
